{
  "sequences": {"note": "The chains behind the UniProt entries cited, without tags or fusion partners.", "UniProt Q9HC97, whole entry": "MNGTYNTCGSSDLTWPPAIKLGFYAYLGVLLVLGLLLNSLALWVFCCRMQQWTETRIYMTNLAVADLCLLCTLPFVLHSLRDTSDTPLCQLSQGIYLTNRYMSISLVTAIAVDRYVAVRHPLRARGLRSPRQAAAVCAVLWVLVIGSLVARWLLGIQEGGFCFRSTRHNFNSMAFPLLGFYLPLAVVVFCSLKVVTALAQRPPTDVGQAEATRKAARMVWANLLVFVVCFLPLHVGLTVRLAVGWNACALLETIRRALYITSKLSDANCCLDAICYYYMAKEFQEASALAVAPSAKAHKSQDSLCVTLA"},
  "source": "PubChem BioAssay AID2058",
  "about": "(Sanford-Burnham Center for Chemical Genomics, 2009)",
  "note": "This is a selection; strong and weak results do not stand in their true shares. Measured potencies and affinities stand elsewhere. Activity calls are given as the source filed them.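 The calls were made as follows: active = inhibition of at least 50% with at least 30 cells and total cytoplasm GFP at most 10,000,000; inconclusive = under 30 cells or total GFP of 10,000,000 plus; inactive = the rest.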",
  "data": [
    {"target": "G-protein coupled receptor 35 (Homo sapiens) (UniProt Q9HC97)", "assay": "GPR35 antagonists blocking zaprinast-driven arrestin recruitment, primary screen, imaging, U2OS, beta-arrestin-GFP, zaprinast agonist (AID 2058)", "settings": "U2OS GPR35 beta-arrestin-GFP translocation imaging, zaprinast antagonism; at 10 µM; stronger effect = higher value", "values": [
      {"smiles": "CCCOc1ccc(C(=O)NCC2(N(C)C)CCCCC2)cc1OC", "inhibition": "inactive: 23.3%"},
      {"smiles": "CC(C)c1ccc(NC2CCN(C(=O)OC(C)(C)C)CC2)cc1", "inhibition": "inactive: -1.4%"},
      {"smiles": "COc1ccc(CN(CCCl)CCCl)cc1Cl", "inhibition": "inactive: -1%"},
      {"smiles": "CN(C)c1cccc(C(=O)NCC2(N3CCCCC3)CCCCC2)c1", "inhibition": "inactive: -0.2%"},
      {"smiles": "COc1cc(OC)c(C(=O)NCC2(N(C)C)CCCCC2)cc1OC", "inhibition": "inactive: -11.2%"},
      {"smiles": "O=C(NCC1(N2CCCCC2)CCCCC1)c1cccc(C(F)(F)F)c1", "inhibition": "inactive: -3.7%"},
      {"smiles": "O=C(NCC1(N2CCOCC2)CCCCC1)c1cc(=O)[nH]c2ccccc12", "inhibition": "inactive: -1.1%"},
      {"smiles": "COc1cc(C(=O)NCC2(N3CCCCC3)CCCCC2)ccc1OC(F)F", "inhibition": "inactive: -3.8%"},
      {"smiles": "COc1ccc(NC2CCN(C(=O)OC(C)(C)C)CC2)cc1", "inhibition": "inactive: 22.2%"},
      {"smiles": "CN1CCN(CCOC(=O)C(O)(c2ccccc2)c2ccccc2)CC1", "inhibition": "inactive: 4%"},
      {"smiles": "O=C(NCC1(N2CCCCC2)CCCCC1)c1ccc(OC(F)F)cc1", "inhibition": "inactive: -3.7%"},
      {"smiles": "CCN1CCC(Nc2ccc(Cl)cc2)CC1", "inhibition": "inactive: 12.7%"},
      {"smiles": "N#CC1(Nc2ccccc2)CCN(CCc2ccccc2)CC1", "inhibition": "inactive: 15.3%"},
      {"smiles": "O=C(NCC1(N2CCCCC2)CCCCC1)c1cccc([N+](=O)[O-])c1", "inhibition": "inactive: 7.7%"},
      {"smiles": "COc1cc(C(=O)NCC2(N(C)C)CCCCC2)ccc1OC(F)F", "inhibition": "inactive: 3.6%"},
      {"smiles": "CCOC(=O)N1CCC(Nc2cccc(C)c2)CC1", "inhibition": "inactive: 3.6%"},
      {"smiles": "Cc1ccc(OCC(C)C)c(CN(CCCl)CCCl)c1", "inhibition": "inactive: 4.8%"},
      {"smiles": "CCOc1ccc(C)cc1CN(CCCl)CCCl", "inhibition": "inactive: -6.4%"},
      {"smiles": "O=C(NCC1(N2CCCCC2)CCCCC1)c1ccc(F)cc1", "inhibition": "inactive: -3.1%"},
      {"smiles": "CCOC(=O)N1CCC(Nc2ccc(F)cc2)CC1", "inhibition": "inactive: 8.8%"},
      {"smiles": "COc1ccc(NC2CCN(CCc3ccccc3)CC2)c(OC)c1", "inhibition": "inactive: 3.8%"},
      {"smiles": "Cc1cc(C)cc(N(C(=O)c2ccccc2)C2CCN(C(=O)OC(C)(C)C)CC2)c1", "inhibition": "inactive: 24.9%"},
      {"smiles": "O=C(NCC1(N2CCOCC2)CCCCC1)c1cc2ccccc2o1", "inhibition": "inactive: -10.9%"},
      {"smiles": "O=C(OC1CN2CCC1CC2)C1c2ccccc2Oc2ccccc21", "note": "(centres undefined)", "inhibition": "inactive: 7.9%"},
      {"smiles": "N#CC1(Nc2ccccc2)CCN(Cc2ccccc2)CC1", "inhibition": "inactive: 12.2%"},
      {"smiles": "CCOC(=O)N1CCC(Nc2ccc(OC)cc2)CC1", "inhibition": "inactive: -9.8%"},
      {"smiles": "COc1ccc(C(=O)NCC2(N3CCCCC3)CCCCC2)cc1", "inhibition": "inactive: -0.1%"},
      {"smiles": "CC(C)(C)OC(=O)N1CCC(N(C(=O)c2ccccc2)c2ccc(F)cc2)CC1", "inhibition": "inactive: -10.1%"},
      {"smiles": "COc1ccc(C(=O)NCC2(N3CCCCC3)CCCCC2)c(OC)c1OC", "inhibition": "inactive: -14.1%"},
      {"smiles": "O=C(NCC1(N2CCCCC2)CCCCC1)c1ccc(=O)[nH]c1", "inhibition": "inactive: -10.5%"},
      {"smiles": "CSc1ccccc1C(=O)NCC1(N2CCCCC2)CCCCC1", "inhibition": "inactive: -13.7%"},
      {"smiles": "COc1cccc(C(=O)N(c2cc(C)cc(C)c2)C2CCN(C(=O)OC(C)(C)C)CC2)c1", "inhibition": "inactive: -15.6%"},
      {"smiles": "COc1cc(OC)cc(C(=O)NCC2(N3CCOCC3)CCCCC2)c1", "inhibition": "inactive: -4.6%"},
      {"smiles": "CCC(CO)(C(=O)OC1CN2CCC1CC2)c1ccccc1", "note": "(centres undefined)", "inhibition": "inactive: -15.2%"},
      {"smiles": "CN1CCC(Nc2ccc(Cl)cc2)CC1", "inhibition": "inactive: -4.5%"},
      {"smiles": "CCCOc1ccc(C)cc1CN(CCCl)CCCl", "inhibition": "inactive: -10.6%"},
      {"smiles": "CCOc1ncccc1C(=O)NCC1(N2CCOCC2)CCCCC1", "inhibition": "inactive: 5.7%"},
      {"smiles": "CN1CCC(Nc2ccc(F)c(Cl)c2)CC1", "inhibition": "inactive: 2.1%"},
      {"smiles": "CC(C)(C)OC(=O)N1CCC(Nc2ccccc2)CC1", "inhibition": "inactive: -6.4%"},
      {"smiles": "O=C(O)C1(Nc2ccccc2)CCN(Cc2ccccc2)CC1", "inhibition": "inactive: 8.8%"},
      {"smiles": "CCCOc1ccc(C(=O)NCC2(N(C)C)CCCCC2)cc1", "inhibition": "inactive: 2%"},
      {"smiles": "CCN1CCC(Nc2cccc(F)c2)CC1", "inhibition": "inactive: -10.2%"},
      {"smiles": "CN(C)c1ccc(C(=O)NCC2(N3CCCCC3)CCCCC2)cc1", "inhibition": "inactive: 15.9%"},
      {"smiles": "COc1cc(OC)cc(C(=O)NCC2(N3CCCCC3)CCCCC2)c1", "inhibition": "inactive: 5.2%"},
      {"smiles": "Fc1ccccc1NC1CCN(Cc2ccccc2)CC1", "inhibition": "inactive: -6%"},
      {"smiles": "CN(C)C1(CNC(=O)c2cccc(C#N)c2)CCCCC1", "inhibition": "inactive: 11.2%"},
      {"smiles": "c1ccc(CN2CCC(Nc3ccccc3)CC2)cc1", "inhibition": "inactive: 4%"},
      {"smiles": "CCCN1CCC(Nc2cc(OC)cc(OC)c2)CC1", "inhibition": "inactive: 8.5%"},
      {"smiles": "N#Cc1ccc(C(=O)NCC2(N3CCCCC3)CCCCC2)cc1", "inhibition": "inactive: 10.5%"},
      {"smiles": "CC(C)(C)OC(=O)N1CCC(N(C(=O)c2ccccc2)c2ccc(Cl)cc2)CC1", "inhibition": "inactive: 10.6%"},
      {"smiles": "CCOC(=O)N1CCC(Nc2ccc(C)cc2)CC1", "inhibition": "inactive: -7.9%"},
      {"smiles": "N/C(=N\\O)c1c(N)no[n+]1[O-]", "inhibition": "inactive: 13.9%"},
      {"smiles": "O=C(OC1CN2CCC1CC2)C1c2ccccc2C=Cc2ccccc21", "note": "(centres undefined)", "inhibition": "inactive: 5.5%"},
      {"smiles": "COc1ccc(C(=O)NCC2(N3CCOCC3)CCCCC2)cc1OC", "inhibition": "inactive: -11%"}
    ]}
  ]
}
